This passage reports inhibition results from PubChem BioAssay AID588501 (NMMLSC, 2011).

For orientation: inhibition means the relative decrease from the control value, in per cent.

The structures appear in SMILES notation. The entries are a selection whose mix differs from that of the whole data set. Some of these compounds have results that are not shown, active ones among them. Active and inactive are the calls of the source. Rule as the data show it: active = inhibition above about 30%; inconclusive = no clear call, values can overlap the other calls; inactive = below that.

The target of the assay is Lethal factor (Bacillus anthracis) (UniProt P15917). In words: anthrax lethal factor cleavage blockers – biochemical, multiplex microsphere, MLPCN library, primary screen (AID 588501). Also: plate controls were buffer without enzyme for full effect and enzyme alone for no effect. Conditions: multiplex microsphere protease cleavage assay, LF; at 10 µM; stronger effect = higher value.
As for `C=C(C)C#CC(O)(C(=O)OC1CCN(C)CC1)c1ccccc1` (stereo unspecified), the inhibition is inactive: 2%.
The same measure for `COc1ccc(Br)c(C(=O)NCC2(N3CCCCC3)CCCCC2)c1`: inactive: 2.8%; for `CC(C)Oc1ccc(C(=O)NCC2(N(C)C)CCCCC2)cc1`: inactive: 4.8%; for `O=C(OCCN1CCCC1)C(O)(c1ccccc1)c1ccccc1`: inactive: 0.5%.
Under `CN(C)c1cccc(C(=O)NCC2(N(C)C)CCCCC2)c1` stands inactive: -0.1%; under `O=C(OC1CN2CCC1CC2)C(CO)(c1ccccc1)c1ccccc1` (stereo unspecified), inactive: -1.6%.
For the molecule `COc1cccc(C(=O)NCC2(N3CCCCC3)CCCCC2)c1`, the inhibition is inactive: 1.6%.
The same measure for `COc1ccc(Cl)cc1C(=O)NCC1(N(C)C)CCCCC1`: inactive: -1.3%.
Under `O=C(NCC1(N2CCCCC2)CCCCC1)c1cccc(Cl)c1` stands inactive: 10%; under `CN(C)C1(CNC(=O)c2ccc(Br)cc2)CCCCC1`, inactive: 4.8%.
Under `COc1cc(C(=O)NCC2(N(C)C)CCCCC2)c([N+](=O)[O-])cc1OC` stands inactive: -11.5%.
For `C=CCN1CCN(CCOC(=O)C(O)(c2ccccc2)c2ccccc2)CC1`, the inhibition is inactive: -7.8%.
The same measure for `O=C(NCC1(N2CCCCC2)CCCCC1)c1cc(F)c(F)cc1Cl`: inactive: -1.2%; for `COc1ccc(C(=O)NCC2(N(C)C)CCCCC2)cc1`: inactive: 6.6%.
The same measure for `CCN1CCCC(OC(=O)C2(O)c3ccccc3C=Cc3ccccc32)C1` (stereo unspecified): inactive: 0.6%.
The same measure for `Cc1cc(C(=O)NCC2(N3CCCCC3)CCCCC2)ccc1[N+](=O)[O-]`: inactive: -7.5%; for `O=C(NCC1(N2CCCCC2)CCCCC1)c1cccc(Br)c1`: inactive: 2.5%.
With `Cc1ccccc1C(=O)NCC1(N2CCCCC2)CCCCC1`, the inhibition is inactive: -2.4%.
`CN(C)c1ccc(C(=O)NCC2(N(C)C)CCCCC2)cc1`: the inhibition was inactive: -6.4%.
Under `CN(C)C1CCCC1OC(=O)C(O)(c1ccccc1)c1ccccc1` (stereo unspecified) stands inactive: -1.4%; under `CCN(CC)CC(C)C(C)OC(=O)C(O)(c1ccccc1)c1ccccc1` (stereo unspecified), inactive: -0.2%.
The same measure for `COc1cc(SC)ccc1C(=O)NCC1(N(C)C)CCCCC1`: inactive: 7.7%; for `CC(C)N1C(=O)CC2(CCN(CCOC(=O)C(O)(c3ccccc3)c3ccccc3)CC2)C1=O`: inactive: 6.2%.
Regarding `Cc1ccc(C(=O)NCC2(N3CCCCC3)CCCCC2)cc1`, the inhibition is inactive: 3%.
As for `O=C(NCC1(N2CCCCC2)CCCCC1)c1cc([N+](=O)[O-])ccc1Cl`, the inhibition is inactive: -4.7%.
`CN1[C@@H]2CC[C@H]1CC(OC(=O)C(O)(c1ccccc1)c1ccccc1)C2` (stereo partly specified): the inhibition was inactive: -8.2%.
